Paper PMC6274642, “Small molecule inhibitors reveal allosteric regulation of USP14 via steric blockade” (Cell Research, 2018)

The chains behind the UniProt entries cited, without tags or fusion partners. Where a name states a change or a piece, a line headed by the entry shows the natural chain unless it says otherwise.
UniProt P54578: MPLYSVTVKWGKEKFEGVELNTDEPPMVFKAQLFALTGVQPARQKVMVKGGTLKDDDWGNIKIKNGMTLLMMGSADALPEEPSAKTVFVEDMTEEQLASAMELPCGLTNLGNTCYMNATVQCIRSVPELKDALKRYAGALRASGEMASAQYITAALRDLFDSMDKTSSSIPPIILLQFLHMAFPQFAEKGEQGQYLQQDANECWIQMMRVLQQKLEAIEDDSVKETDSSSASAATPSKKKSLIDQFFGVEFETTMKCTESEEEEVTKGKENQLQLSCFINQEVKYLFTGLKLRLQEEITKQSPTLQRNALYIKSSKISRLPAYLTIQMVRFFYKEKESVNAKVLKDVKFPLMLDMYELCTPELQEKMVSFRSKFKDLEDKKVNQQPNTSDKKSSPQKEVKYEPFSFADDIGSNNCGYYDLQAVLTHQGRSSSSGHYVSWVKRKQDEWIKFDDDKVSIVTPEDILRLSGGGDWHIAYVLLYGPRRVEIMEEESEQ

Biological target: T1, USP14 (Homo sapiens, UniProt P54578)
T1 construct: Glutathione S-transferase (GST)-tagged full-length USP14; GST (N); made in house
Assay: Kinetic analysis (Vm, Km) of Ub-AMC hydrolysis by USP14
Assay type: biochemical
Protocol: Menten plot of the concentration-dependence of Ub-AMC (1-48 μM) hydrolysis in the presence
The data were fit to a curve by nonlinear regression
(1 picture or pasted object on this page, not shown here)

Cc1cc(C(=O)CN2CCCC2)c(C)n1-c1ccc(F)cc1 [IU1] was tested, and the Ki was 5 µM.
